{"sequences": {"note": "The chains behind the UniProt entries cited, without tags or fusion partners. Where a name states a change or a piece, a line headed by the entry shows the natural chain unless it says otherwise.", "UniProt P35916, whole entry": "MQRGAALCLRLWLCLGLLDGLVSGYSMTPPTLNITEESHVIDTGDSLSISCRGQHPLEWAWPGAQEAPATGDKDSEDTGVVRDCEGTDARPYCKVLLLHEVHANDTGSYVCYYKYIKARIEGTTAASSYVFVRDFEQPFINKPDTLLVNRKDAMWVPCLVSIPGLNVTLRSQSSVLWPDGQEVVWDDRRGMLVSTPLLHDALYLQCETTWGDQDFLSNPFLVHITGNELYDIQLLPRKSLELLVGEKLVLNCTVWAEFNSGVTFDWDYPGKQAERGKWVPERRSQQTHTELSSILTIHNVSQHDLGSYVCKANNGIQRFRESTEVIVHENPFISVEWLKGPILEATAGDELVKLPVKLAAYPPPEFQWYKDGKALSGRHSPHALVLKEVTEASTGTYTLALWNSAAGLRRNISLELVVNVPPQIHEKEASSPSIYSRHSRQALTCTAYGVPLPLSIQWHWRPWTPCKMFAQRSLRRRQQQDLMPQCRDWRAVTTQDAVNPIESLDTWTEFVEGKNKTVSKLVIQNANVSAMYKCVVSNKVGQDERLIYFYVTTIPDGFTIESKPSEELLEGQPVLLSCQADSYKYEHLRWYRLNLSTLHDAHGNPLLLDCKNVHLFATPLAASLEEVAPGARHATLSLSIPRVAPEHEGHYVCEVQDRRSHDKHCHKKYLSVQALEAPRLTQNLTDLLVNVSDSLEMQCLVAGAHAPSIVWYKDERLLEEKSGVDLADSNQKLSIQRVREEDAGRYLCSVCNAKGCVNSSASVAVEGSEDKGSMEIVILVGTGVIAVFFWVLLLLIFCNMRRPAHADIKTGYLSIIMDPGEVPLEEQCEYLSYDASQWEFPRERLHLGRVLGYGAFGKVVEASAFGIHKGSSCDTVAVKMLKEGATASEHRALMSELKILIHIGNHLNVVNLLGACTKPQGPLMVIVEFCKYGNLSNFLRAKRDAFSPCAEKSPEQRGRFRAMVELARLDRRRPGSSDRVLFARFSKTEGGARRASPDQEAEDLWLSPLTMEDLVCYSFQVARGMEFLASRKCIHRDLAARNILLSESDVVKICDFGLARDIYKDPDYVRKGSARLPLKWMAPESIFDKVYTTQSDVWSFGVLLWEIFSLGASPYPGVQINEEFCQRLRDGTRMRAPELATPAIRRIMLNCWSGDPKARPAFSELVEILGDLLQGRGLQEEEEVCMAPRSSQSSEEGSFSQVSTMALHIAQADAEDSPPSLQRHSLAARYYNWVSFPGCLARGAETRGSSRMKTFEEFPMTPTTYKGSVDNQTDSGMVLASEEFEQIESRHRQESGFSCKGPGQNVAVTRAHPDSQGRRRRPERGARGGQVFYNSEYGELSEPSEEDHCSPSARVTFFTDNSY", "UniProt P17948, whole entry": "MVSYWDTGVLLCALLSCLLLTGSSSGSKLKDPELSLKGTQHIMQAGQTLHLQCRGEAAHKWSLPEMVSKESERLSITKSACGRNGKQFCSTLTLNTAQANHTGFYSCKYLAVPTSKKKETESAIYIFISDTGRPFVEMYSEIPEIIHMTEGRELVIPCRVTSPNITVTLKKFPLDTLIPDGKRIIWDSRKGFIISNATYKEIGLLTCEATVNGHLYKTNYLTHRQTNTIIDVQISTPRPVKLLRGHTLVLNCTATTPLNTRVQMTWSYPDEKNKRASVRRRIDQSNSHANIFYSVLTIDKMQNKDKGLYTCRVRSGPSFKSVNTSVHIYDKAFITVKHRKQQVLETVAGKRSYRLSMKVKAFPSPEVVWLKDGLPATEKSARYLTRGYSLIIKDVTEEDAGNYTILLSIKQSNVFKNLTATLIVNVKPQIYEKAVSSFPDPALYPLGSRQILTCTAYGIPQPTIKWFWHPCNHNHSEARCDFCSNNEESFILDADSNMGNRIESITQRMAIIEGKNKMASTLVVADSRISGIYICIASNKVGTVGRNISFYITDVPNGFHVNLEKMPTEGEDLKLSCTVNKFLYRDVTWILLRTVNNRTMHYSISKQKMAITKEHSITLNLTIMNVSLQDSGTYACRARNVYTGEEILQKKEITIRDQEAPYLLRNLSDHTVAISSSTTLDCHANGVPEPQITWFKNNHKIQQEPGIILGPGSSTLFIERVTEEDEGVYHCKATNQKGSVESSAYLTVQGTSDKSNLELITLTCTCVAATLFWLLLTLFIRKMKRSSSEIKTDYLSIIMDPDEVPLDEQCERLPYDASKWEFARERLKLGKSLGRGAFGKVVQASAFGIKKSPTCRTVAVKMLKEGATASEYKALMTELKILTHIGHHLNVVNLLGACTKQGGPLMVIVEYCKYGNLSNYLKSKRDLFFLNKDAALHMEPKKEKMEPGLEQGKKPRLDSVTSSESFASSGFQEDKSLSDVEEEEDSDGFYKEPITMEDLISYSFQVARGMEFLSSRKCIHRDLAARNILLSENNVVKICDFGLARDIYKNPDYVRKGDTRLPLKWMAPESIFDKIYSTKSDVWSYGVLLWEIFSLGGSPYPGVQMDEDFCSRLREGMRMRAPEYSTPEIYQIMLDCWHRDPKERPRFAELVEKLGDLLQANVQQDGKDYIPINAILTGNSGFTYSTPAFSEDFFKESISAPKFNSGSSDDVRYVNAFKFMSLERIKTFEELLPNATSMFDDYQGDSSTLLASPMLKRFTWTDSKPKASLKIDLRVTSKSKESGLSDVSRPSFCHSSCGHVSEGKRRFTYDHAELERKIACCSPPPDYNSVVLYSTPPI", "UniProt O75716, whole entry": "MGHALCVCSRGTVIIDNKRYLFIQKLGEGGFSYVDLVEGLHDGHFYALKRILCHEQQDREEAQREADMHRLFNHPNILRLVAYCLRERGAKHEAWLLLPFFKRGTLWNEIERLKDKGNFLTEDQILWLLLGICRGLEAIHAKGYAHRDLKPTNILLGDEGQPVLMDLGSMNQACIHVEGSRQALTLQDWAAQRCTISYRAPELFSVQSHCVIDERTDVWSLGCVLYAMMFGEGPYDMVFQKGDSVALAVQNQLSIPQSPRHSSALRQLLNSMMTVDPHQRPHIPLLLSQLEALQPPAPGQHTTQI", "UniProt Q16584": "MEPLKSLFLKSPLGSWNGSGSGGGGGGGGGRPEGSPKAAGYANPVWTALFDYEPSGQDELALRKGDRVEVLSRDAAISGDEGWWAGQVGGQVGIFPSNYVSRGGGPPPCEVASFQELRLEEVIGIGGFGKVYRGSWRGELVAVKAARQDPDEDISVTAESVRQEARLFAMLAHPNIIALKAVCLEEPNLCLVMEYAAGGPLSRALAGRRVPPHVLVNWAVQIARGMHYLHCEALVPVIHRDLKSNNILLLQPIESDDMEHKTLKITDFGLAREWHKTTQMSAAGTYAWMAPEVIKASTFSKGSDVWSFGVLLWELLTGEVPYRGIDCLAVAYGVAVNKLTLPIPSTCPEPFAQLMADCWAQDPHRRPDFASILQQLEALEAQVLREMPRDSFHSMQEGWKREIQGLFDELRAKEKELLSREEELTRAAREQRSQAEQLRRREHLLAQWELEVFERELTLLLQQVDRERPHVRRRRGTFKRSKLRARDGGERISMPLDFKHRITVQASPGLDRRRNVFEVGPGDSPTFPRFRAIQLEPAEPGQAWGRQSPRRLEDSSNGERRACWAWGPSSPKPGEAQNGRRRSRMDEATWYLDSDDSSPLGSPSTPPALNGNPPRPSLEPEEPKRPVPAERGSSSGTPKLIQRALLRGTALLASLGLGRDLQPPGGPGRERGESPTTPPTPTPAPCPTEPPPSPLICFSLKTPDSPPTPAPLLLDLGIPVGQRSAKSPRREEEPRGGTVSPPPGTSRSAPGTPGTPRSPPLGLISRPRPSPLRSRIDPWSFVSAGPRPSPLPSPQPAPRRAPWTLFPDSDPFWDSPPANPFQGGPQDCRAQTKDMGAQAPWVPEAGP"}, "source": "ChEMBL document CHEMBL5321287", "about": "“Discovery, Synthesis, and Evaluation of Novel Dual Inhibitors of a Vascular Endothelial Growth Factor Receptor and Poly(ADP-Ribose) Polymerase for BRCA Wild-Type Breast Cancer Therapy” (J Med Chem, 2023)", "key": {"[1]": {"target": "T1, Vascular endothelial growth factor receptor 3 (Homo sapiens, UniProt P35916)", "assay": "Inhibition of VEGFR3 phosphorylation at tyr1230 residue in human MCF7 cells at 8 uM incubated for 2 days by Western blot analysis", "format": "cell-based", "conditions": "time 2.0 day"}, "[2]": {"target": "T2, Vascular endothelial growth factor receptor 1 (Homo sapiens, UniProt P17948)", "assay": "Inhibition of VEGFR1 (unknown origin) at 1 uM by Z'-Lyte kinase assay relative to control"}, "[3]": {"target": "T1, Vascular endothelial growth factor receptor 3", "assay": "Inhibition of VEGFR3 phosphorylation at tyr1230 residue in VEGF165-treated HUVEC cells at 8 uM incubated for 2 days by Western blot analysis", "format": "cell-based", "conditions": "time 2.0 day"}, "[4]": {"target": "T2, Vascular endothelial growth factor receptor 1", "assay": "Inhibition of VEGFR1 phosphorylation at tyr1333 residue in human MCF7 cells at 8 uM incubated for 2 days by Western blot analysis", "format": "cell-based", "conditions": "time 2.0 day"}, "[5]": {"target": "T3, Serine/threonine-protein kinase TAO2 (Homo sapiens) (UniProt Q9UL54)", "T3 sequence (whole entry)": "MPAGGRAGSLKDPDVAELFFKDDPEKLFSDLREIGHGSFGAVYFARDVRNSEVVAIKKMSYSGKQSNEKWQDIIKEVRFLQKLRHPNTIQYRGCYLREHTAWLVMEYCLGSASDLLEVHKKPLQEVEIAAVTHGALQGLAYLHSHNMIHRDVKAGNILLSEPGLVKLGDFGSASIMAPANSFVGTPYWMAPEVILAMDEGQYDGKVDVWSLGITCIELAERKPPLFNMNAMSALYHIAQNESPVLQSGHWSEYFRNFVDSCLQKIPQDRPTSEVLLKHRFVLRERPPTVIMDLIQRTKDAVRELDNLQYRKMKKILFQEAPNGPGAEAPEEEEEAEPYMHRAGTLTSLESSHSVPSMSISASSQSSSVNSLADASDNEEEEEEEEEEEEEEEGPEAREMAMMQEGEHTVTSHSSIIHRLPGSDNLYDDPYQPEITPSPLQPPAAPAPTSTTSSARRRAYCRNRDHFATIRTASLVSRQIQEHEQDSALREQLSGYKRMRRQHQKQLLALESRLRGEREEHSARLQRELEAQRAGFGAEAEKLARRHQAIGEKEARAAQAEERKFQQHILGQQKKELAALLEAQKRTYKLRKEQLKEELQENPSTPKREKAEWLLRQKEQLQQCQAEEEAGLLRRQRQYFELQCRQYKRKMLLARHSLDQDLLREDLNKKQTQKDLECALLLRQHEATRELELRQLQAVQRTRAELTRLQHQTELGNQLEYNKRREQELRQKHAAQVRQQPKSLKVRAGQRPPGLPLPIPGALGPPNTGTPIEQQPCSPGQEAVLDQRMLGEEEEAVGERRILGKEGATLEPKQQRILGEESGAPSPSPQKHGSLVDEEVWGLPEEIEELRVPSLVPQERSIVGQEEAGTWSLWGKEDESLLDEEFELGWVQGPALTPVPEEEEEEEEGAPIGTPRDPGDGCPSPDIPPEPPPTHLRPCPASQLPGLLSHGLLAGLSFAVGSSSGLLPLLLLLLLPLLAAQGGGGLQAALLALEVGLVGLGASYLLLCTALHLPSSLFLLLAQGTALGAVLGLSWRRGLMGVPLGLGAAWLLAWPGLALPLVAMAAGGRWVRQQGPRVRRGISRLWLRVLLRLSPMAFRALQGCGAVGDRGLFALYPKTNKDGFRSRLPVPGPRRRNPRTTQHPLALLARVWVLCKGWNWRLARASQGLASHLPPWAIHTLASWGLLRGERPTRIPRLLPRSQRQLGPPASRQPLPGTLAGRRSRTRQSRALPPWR", "assay": "Inhibition of TAO2 (unknown origin) at 1 uM by Z'-Lyte kinase assay relative to control"}, "[6]": {"target": "T1, Vascular endothelial growth factor receptor 3", "assay": "Inhibition of VEGFR3 phosphorylation at tyr1230 residue in human MDA-MB-231 cells at 8 uM incubated for 2 days by Western blot analysis", "format": "cell-based", "conditions": "time 2.0 day"}, "[7]": {"target": "Serine/threonine-protein kinase 16 (Homo sapiens, UniProt O75716)", "assay": "Inhibition of MPSK1 (unknown origin) at 1 uM by Z'-Lyte kinase assay relative to control"}, "[8]": {"target": "T1, Vascular endothelial growth factor receptor 3", "assay": "Inhibition of VEGFR3 (unknown origin) at 1 uM by Z'-Lyte kinase assay relative to control"}, "[9]": {"target": "T2, Vascular endothelial growth factor receptor 1", "assay": "Inhibition of VEGFR1 phosphorylation at tyr1333 residue in VEGF165-treated HUVEC cells at 8 uM incubated for 2 days by Western blot analysis", "format": "cell-based", "conditions": "time 2.0 day"}, "[10]": {"target": "T2, Vascular endothelial growth factor receptor 1", "assay": "Inhibition of VEGFR1 phosphorylation at tyr1333 residue in human MDA-MB-231 cells at 8 uM incubated for 2 days by Western blot analysis", "format": "cell-based", "conditions": "time 2.0 day"}, "[11]": {"target": "Mitogen-activated protein kinase kinase kinase 11 (Homo sapiens, UniProt Q16584)", "assay": "Inhibition of MLK3 (unknown origin) at 1 uM by Z'-Lyte kinase assay relative to control"}}, "note": "Activity calls are given as the source filed them. The rule behind the calls is not given here.", "data": [{"molecule": "Cc1ccc(Nc2nccc(N(C)c3ccc4c(C)n(C)nc4c3)n2)cc1-c1nc2c(C(N)=O)cccc2[nH]1", "values": [{"measurement": "inhibition", "setting": "[1]", "result": "Active"}, {"measurement": "inhibition", "setting": "[2]", "result": 99, "unit": "%"}, {"measurement": "inhibition", "setting": "[3]", "result": "Active"}, {"measurement": "inhibition", "setting": "[4]", "result": "Active"}, {"measurement": "inhibition", "setting": "[5]", "result": 85, "unit": "%"}, {"measurement": "inhibition", "setting": "[6]", "result": "Active"}, {"measurement": "inhibition", "setting": "[7]", "result": 100, "unit": "%"}, {"measurement": "inhibition", "setting": "[8]", "result": 90, "unit": "%"}, {"measurement": "inhibition", "setting": "[9]", "result": "Active"}, {"measurement": "inhibition", "setting": "[10]", "result": "Active"}, {"measurement": "inhibition", "setting": "[11]", "result": 87, "unit": "%"}]}]}
